Experimental data taken from the kinase profiling compilation of Christmann-Franck et al. (2016).

By UniProt entry, the sequences of proteins in these tests, tags left out. Where a name states a change or a piece, a line headed by the entry shows the natural chain unless it says otherwise.
UniProt Q13882, whole entry, looked up: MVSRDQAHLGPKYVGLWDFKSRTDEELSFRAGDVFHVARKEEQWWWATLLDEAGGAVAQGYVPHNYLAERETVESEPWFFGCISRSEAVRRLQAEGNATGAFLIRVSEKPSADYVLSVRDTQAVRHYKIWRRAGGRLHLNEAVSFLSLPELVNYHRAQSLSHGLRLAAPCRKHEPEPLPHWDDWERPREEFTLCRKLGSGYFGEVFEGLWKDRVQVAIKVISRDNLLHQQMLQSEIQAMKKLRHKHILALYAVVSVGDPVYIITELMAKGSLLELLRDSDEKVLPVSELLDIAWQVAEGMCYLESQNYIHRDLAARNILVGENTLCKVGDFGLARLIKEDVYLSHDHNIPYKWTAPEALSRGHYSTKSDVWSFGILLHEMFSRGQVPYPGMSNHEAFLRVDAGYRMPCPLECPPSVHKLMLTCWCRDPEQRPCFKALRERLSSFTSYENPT
UniProt Q96KB5: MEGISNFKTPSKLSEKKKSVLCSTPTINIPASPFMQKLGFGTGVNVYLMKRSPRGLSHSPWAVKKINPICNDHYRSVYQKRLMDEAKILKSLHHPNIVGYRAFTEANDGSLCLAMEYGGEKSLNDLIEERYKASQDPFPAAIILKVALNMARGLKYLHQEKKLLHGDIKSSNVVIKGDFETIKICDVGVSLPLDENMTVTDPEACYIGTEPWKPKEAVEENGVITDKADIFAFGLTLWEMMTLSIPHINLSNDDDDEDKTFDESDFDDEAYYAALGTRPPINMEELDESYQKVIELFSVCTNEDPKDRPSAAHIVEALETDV
UniProt P51957: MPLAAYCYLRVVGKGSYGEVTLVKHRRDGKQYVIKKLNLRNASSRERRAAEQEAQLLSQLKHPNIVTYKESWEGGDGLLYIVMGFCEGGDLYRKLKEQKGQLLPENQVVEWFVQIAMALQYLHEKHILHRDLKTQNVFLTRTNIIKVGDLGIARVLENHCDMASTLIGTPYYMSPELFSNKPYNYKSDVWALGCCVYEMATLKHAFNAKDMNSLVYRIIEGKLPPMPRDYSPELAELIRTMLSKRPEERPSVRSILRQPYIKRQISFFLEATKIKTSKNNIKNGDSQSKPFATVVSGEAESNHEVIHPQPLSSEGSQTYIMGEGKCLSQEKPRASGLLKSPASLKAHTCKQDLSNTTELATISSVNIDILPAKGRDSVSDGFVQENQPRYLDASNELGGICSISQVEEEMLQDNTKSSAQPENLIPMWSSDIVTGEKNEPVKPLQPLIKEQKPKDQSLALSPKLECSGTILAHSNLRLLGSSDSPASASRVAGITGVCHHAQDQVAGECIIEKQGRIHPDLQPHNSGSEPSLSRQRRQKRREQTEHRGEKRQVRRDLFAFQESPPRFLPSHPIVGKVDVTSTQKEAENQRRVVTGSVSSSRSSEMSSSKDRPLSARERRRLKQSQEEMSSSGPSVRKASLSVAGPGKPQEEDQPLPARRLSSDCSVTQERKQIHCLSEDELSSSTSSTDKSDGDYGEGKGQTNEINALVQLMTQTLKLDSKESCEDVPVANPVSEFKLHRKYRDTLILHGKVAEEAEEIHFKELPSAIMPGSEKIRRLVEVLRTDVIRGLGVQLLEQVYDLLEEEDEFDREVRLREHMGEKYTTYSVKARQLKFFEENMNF
UniProt P51617, whole entry, looked up: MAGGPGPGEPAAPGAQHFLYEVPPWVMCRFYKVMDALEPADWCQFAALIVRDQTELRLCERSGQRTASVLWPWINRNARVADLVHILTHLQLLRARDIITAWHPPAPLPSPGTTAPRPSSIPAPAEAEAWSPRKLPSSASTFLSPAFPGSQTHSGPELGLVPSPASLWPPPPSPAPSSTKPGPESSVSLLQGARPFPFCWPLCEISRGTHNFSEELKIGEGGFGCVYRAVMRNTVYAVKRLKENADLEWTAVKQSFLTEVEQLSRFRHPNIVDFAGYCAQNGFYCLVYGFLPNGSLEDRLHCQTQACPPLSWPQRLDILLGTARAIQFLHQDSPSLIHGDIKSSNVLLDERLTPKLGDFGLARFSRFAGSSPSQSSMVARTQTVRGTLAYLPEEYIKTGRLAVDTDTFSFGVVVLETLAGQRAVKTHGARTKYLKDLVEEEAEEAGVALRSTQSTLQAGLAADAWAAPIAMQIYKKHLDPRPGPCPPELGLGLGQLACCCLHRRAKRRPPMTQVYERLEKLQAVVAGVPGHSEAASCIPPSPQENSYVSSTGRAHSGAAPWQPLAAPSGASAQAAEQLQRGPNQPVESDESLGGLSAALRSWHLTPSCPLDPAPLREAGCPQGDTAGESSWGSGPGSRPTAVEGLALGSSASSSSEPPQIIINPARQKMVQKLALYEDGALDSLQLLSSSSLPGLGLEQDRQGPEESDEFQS
UniProt Q15375: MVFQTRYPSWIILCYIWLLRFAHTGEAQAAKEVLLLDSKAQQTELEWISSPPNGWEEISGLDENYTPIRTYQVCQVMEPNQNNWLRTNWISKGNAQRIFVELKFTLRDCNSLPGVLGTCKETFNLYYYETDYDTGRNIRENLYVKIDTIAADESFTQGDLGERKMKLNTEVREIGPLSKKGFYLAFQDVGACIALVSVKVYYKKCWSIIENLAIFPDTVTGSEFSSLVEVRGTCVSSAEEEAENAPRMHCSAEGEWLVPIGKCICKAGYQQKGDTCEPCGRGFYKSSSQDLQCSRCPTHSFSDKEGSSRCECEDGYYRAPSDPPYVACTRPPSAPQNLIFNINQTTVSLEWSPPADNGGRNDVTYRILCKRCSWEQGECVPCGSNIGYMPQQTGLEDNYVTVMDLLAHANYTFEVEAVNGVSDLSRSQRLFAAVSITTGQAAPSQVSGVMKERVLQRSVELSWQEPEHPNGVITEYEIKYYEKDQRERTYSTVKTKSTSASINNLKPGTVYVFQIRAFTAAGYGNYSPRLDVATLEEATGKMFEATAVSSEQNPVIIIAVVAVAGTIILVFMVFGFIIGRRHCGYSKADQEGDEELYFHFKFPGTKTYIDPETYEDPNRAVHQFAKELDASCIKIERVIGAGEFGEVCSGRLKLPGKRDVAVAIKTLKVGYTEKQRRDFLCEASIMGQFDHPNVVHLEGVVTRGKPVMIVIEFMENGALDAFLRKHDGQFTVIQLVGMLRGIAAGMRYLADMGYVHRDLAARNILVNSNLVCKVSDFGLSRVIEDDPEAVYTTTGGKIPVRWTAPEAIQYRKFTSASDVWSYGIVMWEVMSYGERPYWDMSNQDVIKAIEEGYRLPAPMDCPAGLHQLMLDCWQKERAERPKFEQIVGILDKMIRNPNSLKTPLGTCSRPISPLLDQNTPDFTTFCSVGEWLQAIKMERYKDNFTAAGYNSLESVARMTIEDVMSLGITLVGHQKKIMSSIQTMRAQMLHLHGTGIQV
UniProt Q07912: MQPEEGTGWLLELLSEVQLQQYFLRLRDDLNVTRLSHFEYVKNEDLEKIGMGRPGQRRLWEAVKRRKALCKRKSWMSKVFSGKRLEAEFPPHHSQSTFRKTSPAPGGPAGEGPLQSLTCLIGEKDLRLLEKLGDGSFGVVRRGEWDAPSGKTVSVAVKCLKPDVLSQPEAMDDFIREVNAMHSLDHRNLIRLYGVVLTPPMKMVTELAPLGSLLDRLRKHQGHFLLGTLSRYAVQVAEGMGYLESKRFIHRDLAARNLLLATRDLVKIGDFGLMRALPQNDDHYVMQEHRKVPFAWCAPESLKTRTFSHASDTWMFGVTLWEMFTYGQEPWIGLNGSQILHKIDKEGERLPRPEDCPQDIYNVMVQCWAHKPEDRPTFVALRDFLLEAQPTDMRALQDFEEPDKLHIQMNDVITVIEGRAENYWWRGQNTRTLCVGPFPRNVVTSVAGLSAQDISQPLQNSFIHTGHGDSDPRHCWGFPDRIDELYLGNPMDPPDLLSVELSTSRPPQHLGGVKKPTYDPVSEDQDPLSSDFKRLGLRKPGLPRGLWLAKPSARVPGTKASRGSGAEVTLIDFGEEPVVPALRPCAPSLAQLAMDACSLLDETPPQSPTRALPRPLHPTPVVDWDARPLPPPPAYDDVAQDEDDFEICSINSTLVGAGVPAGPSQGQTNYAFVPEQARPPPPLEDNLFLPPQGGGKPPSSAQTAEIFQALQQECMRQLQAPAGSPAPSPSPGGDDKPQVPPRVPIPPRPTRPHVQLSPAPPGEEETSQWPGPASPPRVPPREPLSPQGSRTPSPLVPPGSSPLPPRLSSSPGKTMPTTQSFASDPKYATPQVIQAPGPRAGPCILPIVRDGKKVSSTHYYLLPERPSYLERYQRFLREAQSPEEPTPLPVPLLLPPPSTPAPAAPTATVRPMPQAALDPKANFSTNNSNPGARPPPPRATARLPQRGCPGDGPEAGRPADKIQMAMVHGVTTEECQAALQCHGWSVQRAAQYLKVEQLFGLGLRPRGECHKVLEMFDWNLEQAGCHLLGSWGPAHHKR
UniProt Q9NR20: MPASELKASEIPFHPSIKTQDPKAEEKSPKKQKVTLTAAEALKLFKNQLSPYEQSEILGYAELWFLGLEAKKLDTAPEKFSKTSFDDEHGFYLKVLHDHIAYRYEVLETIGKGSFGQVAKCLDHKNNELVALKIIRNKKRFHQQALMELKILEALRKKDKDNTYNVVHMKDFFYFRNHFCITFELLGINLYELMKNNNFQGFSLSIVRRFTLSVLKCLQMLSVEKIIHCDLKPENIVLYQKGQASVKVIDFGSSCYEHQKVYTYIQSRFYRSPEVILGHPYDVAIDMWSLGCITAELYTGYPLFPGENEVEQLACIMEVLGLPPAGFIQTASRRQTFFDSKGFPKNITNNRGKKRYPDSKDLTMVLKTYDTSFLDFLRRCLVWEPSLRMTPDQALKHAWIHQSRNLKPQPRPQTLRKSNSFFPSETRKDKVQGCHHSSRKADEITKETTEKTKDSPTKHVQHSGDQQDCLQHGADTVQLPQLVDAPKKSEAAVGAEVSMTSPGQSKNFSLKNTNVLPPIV
UniProt Q9HCP0: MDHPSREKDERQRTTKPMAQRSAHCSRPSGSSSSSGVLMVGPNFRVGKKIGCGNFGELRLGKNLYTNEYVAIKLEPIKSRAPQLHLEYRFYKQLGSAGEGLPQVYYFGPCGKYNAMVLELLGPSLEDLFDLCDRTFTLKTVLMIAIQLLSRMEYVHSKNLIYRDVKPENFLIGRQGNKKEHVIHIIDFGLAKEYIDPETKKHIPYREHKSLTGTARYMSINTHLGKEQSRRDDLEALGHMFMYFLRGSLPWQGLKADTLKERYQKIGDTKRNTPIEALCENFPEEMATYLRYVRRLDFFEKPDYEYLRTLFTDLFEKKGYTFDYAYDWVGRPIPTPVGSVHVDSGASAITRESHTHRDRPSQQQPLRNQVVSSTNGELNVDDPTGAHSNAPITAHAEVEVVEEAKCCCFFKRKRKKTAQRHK
UniProt P37173, whole entry, looked up: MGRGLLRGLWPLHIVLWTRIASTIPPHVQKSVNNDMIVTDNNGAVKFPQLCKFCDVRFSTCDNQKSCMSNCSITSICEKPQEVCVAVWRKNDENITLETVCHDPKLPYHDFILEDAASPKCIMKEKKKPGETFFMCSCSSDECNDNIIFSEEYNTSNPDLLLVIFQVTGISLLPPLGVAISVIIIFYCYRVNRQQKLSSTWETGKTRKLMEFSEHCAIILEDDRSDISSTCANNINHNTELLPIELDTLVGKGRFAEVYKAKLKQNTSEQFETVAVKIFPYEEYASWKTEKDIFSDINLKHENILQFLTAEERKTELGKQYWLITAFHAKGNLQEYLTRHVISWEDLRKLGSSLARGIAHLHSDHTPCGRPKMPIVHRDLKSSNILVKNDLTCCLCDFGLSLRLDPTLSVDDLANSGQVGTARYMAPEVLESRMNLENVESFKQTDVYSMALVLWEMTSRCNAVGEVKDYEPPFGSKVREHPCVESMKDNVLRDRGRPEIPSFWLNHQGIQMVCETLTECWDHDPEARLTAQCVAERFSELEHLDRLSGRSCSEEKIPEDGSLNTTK
UniProt Q9P289: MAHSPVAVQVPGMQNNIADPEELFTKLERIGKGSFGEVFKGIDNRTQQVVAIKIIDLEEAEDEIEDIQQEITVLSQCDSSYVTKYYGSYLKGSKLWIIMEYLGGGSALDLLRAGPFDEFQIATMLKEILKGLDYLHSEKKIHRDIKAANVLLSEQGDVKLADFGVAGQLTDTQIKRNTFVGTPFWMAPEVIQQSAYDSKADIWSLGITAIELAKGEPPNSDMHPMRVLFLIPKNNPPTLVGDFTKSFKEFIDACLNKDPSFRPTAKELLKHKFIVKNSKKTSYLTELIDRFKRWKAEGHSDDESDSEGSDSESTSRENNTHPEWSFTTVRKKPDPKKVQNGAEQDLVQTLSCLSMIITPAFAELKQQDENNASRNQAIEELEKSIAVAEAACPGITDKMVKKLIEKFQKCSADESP

Key:
Test in all cases: radiometric filter-binding kinase assay, Kinase HotSpot
Details in all cases: compound 0.5 µM; ATP 10 µM
SYK (human) = SYK (human) (UniProt P43405)
MAP4K4 (human) = MAP4K4 (human) (UniProt O95819)
PTK6 (human) = PTK6 (human) (UniProt Q13882)
PBK (human) = PBK (human) (UniProt Q96KB5)
NEK4 (human) = NEK4 (human) (UniProt P51957)
RPS6KA5 KD2 (human) = RPS6KA5 KD2 (human) (UniProt O75582)
IRAK1 (human) = IRAK1 (human) (UniProt P51617)
EPHA7 (human) = EPHA7 (human) (UniProt Q15375)
TNK2 (human) = TNK2 (human) (UniProt Q07912)
DYRK4 (human) = DYRK4 (human) (UniProt Q9NR20)
SRC (human) = SRC (human) (UniProt P12931)
CSNK1G1 (human) = CSNK1G1 (human) (UniProt Q9HCP0)
HIPK2 (human) = HIPK2 (human) (UniProt Q9H2X6)
TGFBR2 (human) = TGFBR2 (human) (UniProt P37173)
MST4 (human) = MST4 (human) (UniProt Q9P289)
PRKACA (human) = PRKACA (human) (UniProt P17612)

## O=C1Nc2ccc3ncsc3c2/C1=C/c1c[nH]cn1
SYK (human)
  residual activity: 74.4%
MAP4K4 (human)
  residual activity: 5.36%
PTK6 (human)
  residual activity: 64.5%
PBK (human)
  residual activity: 67.4%
NEK4 (human)
  residual activity: 39.5%
RPS6KA5 KD2 (human)
  residual activity: 34.7%
IRAK1 (human)
  residual activity: 52.5%
EPHA7 (human)
  residual activity: 71.3%
TNK2 (human)
  residual activity: 71.2%
DYRK4 (human)
  residual activity: 93.6%
SRC (human)
  residual activity: 78.1%
CSNK1G1 (human)
  residual activity: 86.9%
HIPK2 (human)
  residual activity: 81.2%
TGFBR2 (human)
  residual activity: 75.1%
MST4 (human)
  residual activity: 10.8%
PRKACA (human)
  residual activity: 40.1%
